# scFv variants of Ab-95 (light chain) against a SARS-CoV-2 spike peptide

Antigen: PDVDLGDISGINAS, a 14-residue peptide of the SARS-CoV-2 spike HR2 region.

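The starting antibody came from a phage panning campaign against this peptide. AAYL52 was designed without a model: most single CDR substitutions and a random sample of double and triple ones. Affinity was read by AlphaSeq, a pooled yeast mating assay with surface-displayed partners. After mating in shaken culture at 30 °C for 16 h, diploids were selected and their barcode pairs sequenced. A regression on co-assayed BCL2-family reference pairs converts the normalised counts of each replicate to an apparent Kd. The assay was run in three technical replicates.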

Parent: Ab-95, a human scFv built as VH, a (GGGGS)3 linker, VL. Only the CDRs of the light chain vary.
VH: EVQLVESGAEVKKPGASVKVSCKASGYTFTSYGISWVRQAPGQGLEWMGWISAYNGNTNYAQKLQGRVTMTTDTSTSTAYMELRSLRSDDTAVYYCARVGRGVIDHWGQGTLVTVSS
VL: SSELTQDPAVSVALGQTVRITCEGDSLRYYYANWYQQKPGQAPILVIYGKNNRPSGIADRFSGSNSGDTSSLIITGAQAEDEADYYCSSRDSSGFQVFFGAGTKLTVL

Each variant is given by its three light chain CDRs, as the data file delimits them; those of the parent are EGDSLRYYYAN, GKNNRPS, SSRDSSGFQVF. Kd is apparent (estimated from mating counts) and averaged on the log scale over replicates with a signal. Smaller is tighter. A pair that was not seen in any replicate is written "not detected"; this usually means weak binding, but a binder can also be missed.

CDR-L1	CDR-L2	CDR-L3	Kd	detected	empty controls
EGDSLKYYYAN	GKNNRPS	SSRDSSGFQKA	6.8 µM	3 of 3	2 of 9
EGDSLRAYYAN	GKNNRPS	SSRDSQGFQVF	170 nM	3 of 3	2 of 9
EGDSMRYYYAN	GKNNRPS	SSPDSSAFQVF	420 nM	2 of 3	1 of 9
EGDSLRYYYAN	VKNNRPS	SSRDSSTGQVF	not detected	0 of 3	1 of 9
EGDSLRYEYAK	GKNNLPS	SSRDSSGFQVF	24 nM	3 of 3	3 of 9
FGDSLRYYYAN	GQNRRPS	SSRDSSGFQVF	470 nM	3 of 3	4 of 9
EGDALRYYYAN	GKNNRPS	SSRDSSGAQVF	61 nM	3 of 3	2 of 9
EGDSQRYYYAN	GKFNRPS	SSRDSSCFQVF	91 µM	1 of 3	2 of 9
EGDSHRYYYAN	GKNNRIS	SSKDSSGFQVF	9.7 µM	1 of 3	3 of 9
EGDSLRYYYAN	GSYNRPS	SSRDSAGFQVF	950 nM	3 of 3	2 of 9
EGDSLRYYYAN	GKNNRPS	SSRDQSWVQVF	140 nM	3 of 3	1 of 9
FGDSLRYYYAN	GKQNRPS	SSRDSSGFQVF	1.3 µM	3 of 3	3 of 9
EGGSLRYYDAN	LKNNRPS	SSRDSSGFQVF	4.1 µM	2 of 3	1 of 9
EGDSLRYYYAN	GKNNRPY	SSRISMGFQVF	not detected	0 of 3	3 of 9
EGDSLRYYYAN	GKNNRPS	SSRQSSGPQWF	24 µM	2 of 3	2 of 9
EGDSLRYYYAP	GKNNRPS	SSRDSSHFQVM	76 µM	1 of 3	2 of 9
EGDSLRYYYAI	GKNNRPS	DSRDSSGFQVF	970 nM	1 of 3	1 of 9
EGDSLRCYYAN	GLNNRPS	FSRDSSGFQVF	6.5 µM	3 of 3	4 of 9
EGDSHRYKYAM	GKNNRPS	SSRDSSGFQVF	2.9 µM	1 of 3	3 of 9
EGDVLRYYYRN	GKNNRPS	SSRDESGFQVF	1.1 µM	1 of 3	4 of 9
EGGSLRYYYAN	GKNNRYS	SSRDSSGFQVF	1.2 µM	3 of 3	4 of 9
EGDSLRYYSAN	GKNNRPS	SSQDSSGFLVF	72 nM	3 of 3	4 of 9
EGDSLRQYYAN	GKNNRPS	SSRDSSGDSVF	1.2 µM	3 of 3	4 of 9
EGDSLRYYYQN	GKNWRPS	SSRDFSGFQVF	26 µM	1 of 3	1 of 9
EGDSLRYYYAN	GKYNMPT	SSRDSSGFQVF	not detected	0 of 3	1 of 9
EGDSLRCYYAN	GKNNRPT	SSRLSSGFQVF	11 µM	2 of 3	2 of 9
EGDSLRYYYAN	GKNARPS	NSRDSGGFQVF	6.6 µM	3 of 3	3 of 9
EGDSLRYYYAN	GKNNTPS	SFRDSSGFQVK	20 µM	3 of 3	4 of 9
EGDSLRYYYAS	GKNNRPM	SSRDSSGFQYF	680 nM	2 of 3	0 of 9
EGDSLKYYYSN	GKNNRPS	SSRDMSGFQVF	270 nM	3 of 3	2 of 9
EGDSHRYYAAN	AKNNRPS	SSRDSSGFQVF	2.9 µM	3 of 3	4 of 9
EGTSLRYYYAN	GKNNRPS	CSRDNSGFQVF	990 nM	2 of 3	1 of 9
EGDSLRYYYAN	GKNNRPH	SSRDSSYFQSF	1.0 µM	3 of 3	7 of 9
EGDDLRYYYAN	RKNNRPS	SSRDSSLFQVF	14 µM	2 of 3	2 of 9
EGDSMRYYIAN	GKNNRPS	SSRDSSAFQVF	7.7 µM	2 of 3	2 of 9

The remaining entries, values ahead:

Kd	detected	empty controls	CDR-L1	CDR-L2	CDR-L3
100 nM	3 of 3	1 of 9	EGDSLRYYYAN	GKNNTNS	SSRDKSGFQVF
5.1 µM	2 of 3	2 of 9	EGDSLRYYYAN	GKNNRPS	CSRDSSGFQTE
not detected	0 of 3	0 of 9	EGDSLHYYYAN	GKNNRPS	SSRCSSGFRVF
23 µM	3 of 3	0 of 9	EGQSLRYYYAQ	GKNNRPS	SKRDSSGFQVF
17 µM	1 of 3	3 of 9	EGDSLRYYCAE	GKNNRPS	SSRDQSGFQVF
2.7 µM	1 of 3	1 of 9	EGDSLRYYYAN	GKNNRPS	SSRDSRQFQHF
4.8 µM	3 of 3	3 of 9	EGDSLRYYYAN	GKNWRPS	SIRDSSRFQVF
370 nM	3 of 3	3 of 9	GGDSLRYYYAN	GKNARPS	SSRDSSGFGVF
530 nM	2 of 3	0 of 9	EGDSLRYEYAN	GKNNRPS	SSRDSSGLQDF
170 µM	1 of 3	1 of 9	EGDSAGYYYAN	GKKNRPS	SSRDSSGFQVF
5.1 µM	3 of 3	1 of 9	EGDSLRYYYAN	GKNNRPS	KSRHSSRFQVF
7.3 µM	3 of 3	8 of 9	EGDSLRWYYRN	VKNNRPS	SSRDSSGFQVF
690 nM	3 of 3	1 of 9	EGDSLRYYYAN	GKNNAAS	CSRDSSGFQVF
200 nM	3 of 3	1 of 9	EGDSLRYEYAN	GKNNRPS	SHRDSSGAQVF
9.2 µM	2 of 3	3 of 9	EGDSLRYYYAN	GKNNRPS	SSRDCSGFAVE
220 nM	3 of 3	3 of 9	EGDSLRYGYAN	GKNNRTS	SSRDSSIFQVF
38 µM	2 of 3	2 of 9	EGDSNRYYYAN	GKNNRPS	SSGDSSGFQKF
530 nM	2 of 3	4 of 9	EGDSLRYYYAN	GYNNRPS	SSRDSSYFQVF
16 µM	2 of 3	2 of 9	EGDSLRYYIAN	GKNNCPS	SSRDSSGFQVF
410 nM	2 of 3	0 of 9	EGDSWRYYEAN	GKNNRPS	SSRDSSGFQVF
26 nM	3 of 3	7 of 9	EGDSLVNYYAN	GKNNRPS	ESRDSSGFQVF
not detected	0 of 3	0 of 9	EDDSLMYYYAN	GKNNRPS	SSRDSSGFRVF
92 µM	3 of 3	2 of 9	EGDSLRYYYAN	GKINRPA	WSRDSSGFQVF
23 µM	2 of 3	2 of 9	EGDSLRYYYAN	GKNNRPS	SNRDSSNFQVH
1.3 µM	3 of 3	2 of 9	EGDSLRYYYAN	SKNNRPS	STRDSSGTQVF
13 µM	3 of 3	0 of 9	WGDSNRYYYAN	GKNMRPS	SSRDSSGFQVF
71 µM	2 of 3	5 of 9	EGDSLRYYYAN	GKPNRIS	SSRDSSGSQVF
10 µM	1 of 3	0 of 9	EGDSLRMYYAN	GKNNRPS	LSRESSGFQVF
1.6 µM	2 of 3	3 of 9	EGDRLRYYYAN	GKNNRPV	SSRDSSGFQVF
40 µM	2 of 3	3 of 9	EGDMLRYYYAN	GKNNRPS	SSRDSSCCQVF
470 nM	3 of 3	6 of 9	EGDSLRYYYAN	GKNNRPS	SYRDSSGFTVF
1.4 µM	3 of 3	3 of 9	EGESLRYYYAN	GKYNRES	SSRDSSGFQVF
1.5 µM	3 of 3	1 of 9	EGDSLRYYYAN	GKNNRSS	SPRDSSKFQVF
98 µM	2 of 3	5 of 9	EGDSLRYYYAN	GKNNRPM	RSNDSSGFQVF
1.5 µM	1 of 3	3 of 9	WGDSLRYYYAN	GKNNRPS	SSRDSSGVFVF
not detected	0 of 3	2 of 9	EGDSLRYYYAE	MKNNRPS	SSFDSSGFQVF

Again, the first 6 entries without any signal:

CDR-L1,CDR-L2,CDR-L3,Kd,detected,empty controls
EGDSLRYYYAN,VKNNRPS,SSRDSSTGQVF,not detected,0 of 3,1 of 9
EGDSLRYYYAN,GKNNRPY,SSRISMGFQVF,not detected,0 of 3,3 of 9
EGDSLRYYYAN,GKYNMPT,SSRDSSGFQVF,not detected,0 of 3,1 of 9
EGDSLHYYYAN,GKNNRPS,SSRCSSGFRVF,not detected,0 of 3,0 of 9
EDDSLMYYYAN,GKNNRPS,SSRDSSGFRVF,not detected,0 of 3,0 of 9
EGDSLRYYYAE,MKNNRPS,SSFDSSGFQVF,not detected,0 of 3,2 of 9

Empty control strains, which show no peptide, gave a signal in 28% of pairings with library AAYL52; the median was 8.2 µM and 95% of these signals were weaker than 800 nM. No background was subtracted. The control count says in how many pairings with the empty strains this scFv gave a signal. For reference, the parent read 200 nM as the reference entry and 180 nM as a member of this library.

Reference: Engelhart et al. 2022, doi:10.1038/s41597-022-01779-4. File: FLAb, binding data.